# According to patent US20250170265A1 (priority 2023, published 2025):
# Tested on: supercoiled pBR322 plasmid DNA
# Experiment: Cleavage assay of diazonium in blue, red, and ambient light
# Settings: read-out: EC50 value; low-energy red light (660 nm)
row,Compound,EC50 [nM]
1,N-(3-diazobenzene) 4-diazobenzamide tetrafluoroborate,95

# Tested on: supercoiled pBR322 plasmid DNA
# Experiment: not given
# Settings: read-out: EC50 value; supercoiled pBR322 0.5 μg (40 μM/bp), 525 nm green light, 1.5-2 h, water
row,Compound,EC50 [nM]
1,"methyl 3,5-bisdiazonium-1-benzoate tetrafluoroborate",4260
2,N-(4-diazobenzene) 4-diazobenzamide tetrafluoroborate,74.1
3,CC(=O)Nc1ccc(C(c2ccc([N+]#N)cc2)(c2ccc([N+]#N)cc2)c2ccc([N+]#N)cc2)cc1,5.64
4,N#[N+]c1ccc([N+]#N)cc1,792
5,N-(4-diazobenzene) 3-diazobenzamide tetrafluoroborate,26.3
6,di(benzene-4-diazonium)ether tetrafluoroborate,33.7
7,di(benzene-3-diazonium)ether tetrafluoroborate,47.9
8,N-(3-diazobenzene) benzamide tetrafluoroborate,469
9,methyl 4-benzoate-1-diazonium tetrafluoroborate,571
10,N-(3-diazobenzene) 3-diazobenzamide tetrafluoroborate,18.2
11,N-(3-diazobenzene) 4-diazobenzamide tetrafluoroborate,22.9
12,N#[N+]c1ccc([N+](=O)[O-])cc1,371
13,naphthaene-1-diazonium tetrafluoroborate,1080
14,N#[N+]c1ccc2cc3cccc([N+]#N)c3nc2c1,454
15,(3-diazophenyl) 3-diazobenzoate tetrafluoroborate,38.1
16,"N,N′-di(3-benzenediazonium)urea tetrafluoroborate",82.4
17,N-(3-diazobenzene)-N-methyl-3-diazobenzamide tetrafluoroborate,46.1
18,4-nitrile-benzene-1-diazonium tetrafluoroborate,557

# Same assay, conditions: supercoiled pBR322, 525 nm green light
row,Compound,DNA cleavage potency (in words)
1,F[B-](F)(F)F.F[B-](F)(F)F.N#[N+]c1ccc2cc3cccc([N+]#N)c3nc2c1,only modest potency
2,CC(=O)Nc1ccc(C(c2ccc([N+]#N)cc2)(c2ccc([N+]#N)cc2)c2ccc([N+]#N)cc2)cc1.F[B-](F)(F)F.F[B-](F)(F)F.F[B-](F)(F)F,excellent potency
3,F[B-](F)(F)F.F[B-](F)(F)F.N#[N+]c1ccc([N+]#N)cc1,improved potency
4,N-(3-diazobenzene)-N-methyl-3-diazobenzamide tetrafluoroborate,good potency

# Tested on: double-stranded DNA
# Experiment: not given
# Settings: read-out: EC50 (DNA cleavage); comparison value; cited from earlier work
row,Compound,EC50 [nM]
1,calicheamicin γ1,7 to 10
